The data set relates to Nc1ncnc2c1ncn2[C@@H]1O[C@H](COP(=O)(O)OP(=O)(O)OP(=O)(O)O)[C@@H](O)[C@H]1O. The experiment in a line: purified protein. Particulars: pH 7.5; 30.0 °C.

Broadly, the Km is the concentration of substrate that gives half-maximal velocity. Turning to (Mycolicibacterium vanbaalenii PYR-1), the Km came out at 2600 ± 500 µM.

(Values after article PMC4306142, “Structure of mycobacterial maltokinase, the missing link in the essential GlgE-pathway” (Scientific Reports, 2015).)
